The supplement of paper PMC11403291

The chains behind the UniProt entries cited, without tags or fusion partners. Where a name states a change or a piece, a line headed by the entry shows the natural chain unless it says otherwise.
UniProt Q16659, whole entry: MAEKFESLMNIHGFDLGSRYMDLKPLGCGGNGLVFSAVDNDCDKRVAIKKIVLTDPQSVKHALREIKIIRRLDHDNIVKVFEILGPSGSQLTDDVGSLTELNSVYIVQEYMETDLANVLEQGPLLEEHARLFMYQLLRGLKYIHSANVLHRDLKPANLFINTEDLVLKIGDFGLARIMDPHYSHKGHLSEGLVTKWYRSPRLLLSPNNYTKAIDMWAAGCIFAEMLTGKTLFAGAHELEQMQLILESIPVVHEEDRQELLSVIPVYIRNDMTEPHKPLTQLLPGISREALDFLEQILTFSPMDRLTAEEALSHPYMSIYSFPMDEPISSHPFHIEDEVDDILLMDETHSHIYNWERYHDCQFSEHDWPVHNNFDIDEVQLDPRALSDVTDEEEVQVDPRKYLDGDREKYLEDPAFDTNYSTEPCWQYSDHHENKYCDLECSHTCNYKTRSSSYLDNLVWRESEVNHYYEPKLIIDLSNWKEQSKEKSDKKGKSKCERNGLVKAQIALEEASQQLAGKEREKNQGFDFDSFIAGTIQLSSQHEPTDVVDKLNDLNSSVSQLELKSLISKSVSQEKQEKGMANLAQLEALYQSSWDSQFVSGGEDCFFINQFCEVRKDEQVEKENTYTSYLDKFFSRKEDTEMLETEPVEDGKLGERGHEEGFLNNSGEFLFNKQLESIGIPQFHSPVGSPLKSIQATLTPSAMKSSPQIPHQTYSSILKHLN
UniProt P37173, whole entry: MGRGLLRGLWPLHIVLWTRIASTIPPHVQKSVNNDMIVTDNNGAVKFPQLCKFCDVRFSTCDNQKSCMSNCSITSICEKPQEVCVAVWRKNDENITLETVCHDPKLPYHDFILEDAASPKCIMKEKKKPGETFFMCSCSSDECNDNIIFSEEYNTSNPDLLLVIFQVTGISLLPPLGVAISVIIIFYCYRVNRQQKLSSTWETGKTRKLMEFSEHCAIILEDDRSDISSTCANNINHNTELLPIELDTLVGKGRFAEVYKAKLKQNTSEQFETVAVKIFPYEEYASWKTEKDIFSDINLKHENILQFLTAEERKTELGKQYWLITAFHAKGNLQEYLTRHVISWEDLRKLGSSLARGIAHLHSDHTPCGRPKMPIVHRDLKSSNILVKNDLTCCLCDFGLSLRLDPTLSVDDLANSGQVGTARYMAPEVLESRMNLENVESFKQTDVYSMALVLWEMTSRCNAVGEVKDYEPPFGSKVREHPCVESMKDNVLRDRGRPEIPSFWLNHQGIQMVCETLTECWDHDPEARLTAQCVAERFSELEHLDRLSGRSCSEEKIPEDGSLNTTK
UniProt Q13554, whole entry: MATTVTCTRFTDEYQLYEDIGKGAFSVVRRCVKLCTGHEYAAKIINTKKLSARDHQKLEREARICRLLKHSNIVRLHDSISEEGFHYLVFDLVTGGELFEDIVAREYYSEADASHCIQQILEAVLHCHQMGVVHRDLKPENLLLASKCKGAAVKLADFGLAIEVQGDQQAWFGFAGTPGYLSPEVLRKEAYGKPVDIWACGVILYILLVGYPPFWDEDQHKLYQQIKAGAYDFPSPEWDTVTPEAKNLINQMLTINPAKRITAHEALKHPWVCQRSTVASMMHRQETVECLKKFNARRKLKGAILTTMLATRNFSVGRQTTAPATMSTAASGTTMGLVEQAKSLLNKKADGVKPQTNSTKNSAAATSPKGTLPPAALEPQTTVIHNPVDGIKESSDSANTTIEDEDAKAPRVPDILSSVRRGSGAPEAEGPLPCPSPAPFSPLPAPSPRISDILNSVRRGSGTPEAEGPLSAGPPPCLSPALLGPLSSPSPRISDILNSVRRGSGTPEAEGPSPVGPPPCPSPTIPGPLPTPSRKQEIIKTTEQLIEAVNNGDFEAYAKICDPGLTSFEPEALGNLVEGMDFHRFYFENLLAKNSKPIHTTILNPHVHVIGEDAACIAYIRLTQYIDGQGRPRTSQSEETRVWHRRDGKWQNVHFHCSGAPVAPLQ
UniProt Q9NYL2: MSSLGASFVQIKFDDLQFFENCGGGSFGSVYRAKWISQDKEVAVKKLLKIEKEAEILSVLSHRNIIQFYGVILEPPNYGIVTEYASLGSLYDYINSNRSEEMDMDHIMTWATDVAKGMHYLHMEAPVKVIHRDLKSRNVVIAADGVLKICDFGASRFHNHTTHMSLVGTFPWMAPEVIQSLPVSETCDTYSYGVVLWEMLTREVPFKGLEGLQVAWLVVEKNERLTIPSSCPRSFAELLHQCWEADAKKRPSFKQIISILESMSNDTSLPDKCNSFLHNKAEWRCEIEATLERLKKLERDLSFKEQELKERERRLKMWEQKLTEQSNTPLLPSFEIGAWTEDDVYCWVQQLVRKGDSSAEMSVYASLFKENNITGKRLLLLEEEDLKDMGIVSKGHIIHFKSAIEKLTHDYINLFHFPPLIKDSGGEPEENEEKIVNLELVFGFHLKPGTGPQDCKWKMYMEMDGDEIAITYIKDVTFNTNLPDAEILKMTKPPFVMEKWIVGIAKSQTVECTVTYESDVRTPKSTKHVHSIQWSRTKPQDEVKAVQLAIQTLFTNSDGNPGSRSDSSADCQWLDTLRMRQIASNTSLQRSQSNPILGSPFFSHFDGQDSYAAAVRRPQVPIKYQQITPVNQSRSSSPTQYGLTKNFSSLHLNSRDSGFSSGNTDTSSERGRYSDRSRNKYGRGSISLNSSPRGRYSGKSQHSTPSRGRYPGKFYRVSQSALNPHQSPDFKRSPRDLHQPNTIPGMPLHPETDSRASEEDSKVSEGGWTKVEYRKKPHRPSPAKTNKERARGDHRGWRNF
UniProt Q05655: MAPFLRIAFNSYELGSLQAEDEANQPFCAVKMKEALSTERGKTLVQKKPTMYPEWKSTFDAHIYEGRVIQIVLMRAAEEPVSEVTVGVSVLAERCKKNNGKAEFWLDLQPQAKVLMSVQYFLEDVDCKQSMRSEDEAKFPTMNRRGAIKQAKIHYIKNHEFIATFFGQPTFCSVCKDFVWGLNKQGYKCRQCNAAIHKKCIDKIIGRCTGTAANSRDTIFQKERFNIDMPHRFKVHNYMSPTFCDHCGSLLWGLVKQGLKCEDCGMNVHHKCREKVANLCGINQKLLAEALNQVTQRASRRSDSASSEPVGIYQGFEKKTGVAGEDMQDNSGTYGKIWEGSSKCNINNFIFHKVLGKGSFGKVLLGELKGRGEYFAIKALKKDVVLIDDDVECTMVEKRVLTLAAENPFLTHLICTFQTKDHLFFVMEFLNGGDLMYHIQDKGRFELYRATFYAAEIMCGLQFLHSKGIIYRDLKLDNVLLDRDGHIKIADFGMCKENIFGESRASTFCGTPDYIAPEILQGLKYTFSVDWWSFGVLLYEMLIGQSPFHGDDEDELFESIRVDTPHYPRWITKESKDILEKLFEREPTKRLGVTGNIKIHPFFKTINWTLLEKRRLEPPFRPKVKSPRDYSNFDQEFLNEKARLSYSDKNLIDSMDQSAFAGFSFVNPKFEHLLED
UniProt Q15746, whole entry: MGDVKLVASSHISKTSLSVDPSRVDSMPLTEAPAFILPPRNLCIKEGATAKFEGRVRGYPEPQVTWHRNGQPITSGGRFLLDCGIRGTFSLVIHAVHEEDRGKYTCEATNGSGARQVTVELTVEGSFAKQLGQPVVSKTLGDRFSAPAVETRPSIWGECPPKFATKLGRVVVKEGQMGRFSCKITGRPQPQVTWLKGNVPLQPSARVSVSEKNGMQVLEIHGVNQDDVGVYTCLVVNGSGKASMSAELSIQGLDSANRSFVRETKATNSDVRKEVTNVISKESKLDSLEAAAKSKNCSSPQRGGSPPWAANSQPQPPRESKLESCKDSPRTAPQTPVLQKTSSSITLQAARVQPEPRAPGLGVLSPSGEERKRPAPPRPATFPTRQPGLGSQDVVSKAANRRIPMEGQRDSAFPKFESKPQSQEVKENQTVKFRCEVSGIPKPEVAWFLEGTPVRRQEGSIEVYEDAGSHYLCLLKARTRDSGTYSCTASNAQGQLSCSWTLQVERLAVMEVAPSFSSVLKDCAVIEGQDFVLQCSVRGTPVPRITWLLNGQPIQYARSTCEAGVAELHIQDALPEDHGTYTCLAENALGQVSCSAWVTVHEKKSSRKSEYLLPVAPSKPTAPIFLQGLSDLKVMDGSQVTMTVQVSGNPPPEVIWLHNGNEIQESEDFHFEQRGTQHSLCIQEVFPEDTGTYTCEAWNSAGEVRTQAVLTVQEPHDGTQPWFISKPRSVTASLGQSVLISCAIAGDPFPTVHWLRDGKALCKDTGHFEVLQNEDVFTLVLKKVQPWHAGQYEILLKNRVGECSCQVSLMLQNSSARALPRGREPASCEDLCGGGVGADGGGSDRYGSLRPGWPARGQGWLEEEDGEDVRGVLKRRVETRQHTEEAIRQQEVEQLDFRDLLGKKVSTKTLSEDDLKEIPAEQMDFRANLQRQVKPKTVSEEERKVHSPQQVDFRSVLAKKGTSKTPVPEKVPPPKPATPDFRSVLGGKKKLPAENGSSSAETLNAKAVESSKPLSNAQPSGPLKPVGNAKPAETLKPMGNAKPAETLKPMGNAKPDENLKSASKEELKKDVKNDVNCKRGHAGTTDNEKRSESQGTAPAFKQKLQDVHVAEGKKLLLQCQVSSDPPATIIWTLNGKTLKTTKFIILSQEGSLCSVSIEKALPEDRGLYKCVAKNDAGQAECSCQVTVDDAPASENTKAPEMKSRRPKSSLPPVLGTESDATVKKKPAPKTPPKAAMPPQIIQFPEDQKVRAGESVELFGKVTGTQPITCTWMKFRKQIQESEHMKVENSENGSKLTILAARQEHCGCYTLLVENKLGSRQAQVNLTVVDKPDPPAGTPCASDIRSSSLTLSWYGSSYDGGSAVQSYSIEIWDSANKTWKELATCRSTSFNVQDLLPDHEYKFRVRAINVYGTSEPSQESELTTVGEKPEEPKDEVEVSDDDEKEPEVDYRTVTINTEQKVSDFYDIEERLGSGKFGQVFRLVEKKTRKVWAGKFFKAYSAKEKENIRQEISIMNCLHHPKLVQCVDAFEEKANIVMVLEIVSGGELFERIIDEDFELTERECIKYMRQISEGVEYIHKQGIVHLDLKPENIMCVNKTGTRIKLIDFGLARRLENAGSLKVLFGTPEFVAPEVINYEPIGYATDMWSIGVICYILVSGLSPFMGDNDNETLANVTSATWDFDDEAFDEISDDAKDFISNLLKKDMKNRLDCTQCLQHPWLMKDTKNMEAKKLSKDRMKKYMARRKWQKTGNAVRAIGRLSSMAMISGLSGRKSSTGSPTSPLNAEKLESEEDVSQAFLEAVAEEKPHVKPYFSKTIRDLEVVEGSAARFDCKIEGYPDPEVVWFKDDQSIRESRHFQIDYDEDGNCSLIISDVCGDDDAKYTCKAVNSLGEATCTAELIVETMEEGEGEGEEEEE
UniProt Q07912: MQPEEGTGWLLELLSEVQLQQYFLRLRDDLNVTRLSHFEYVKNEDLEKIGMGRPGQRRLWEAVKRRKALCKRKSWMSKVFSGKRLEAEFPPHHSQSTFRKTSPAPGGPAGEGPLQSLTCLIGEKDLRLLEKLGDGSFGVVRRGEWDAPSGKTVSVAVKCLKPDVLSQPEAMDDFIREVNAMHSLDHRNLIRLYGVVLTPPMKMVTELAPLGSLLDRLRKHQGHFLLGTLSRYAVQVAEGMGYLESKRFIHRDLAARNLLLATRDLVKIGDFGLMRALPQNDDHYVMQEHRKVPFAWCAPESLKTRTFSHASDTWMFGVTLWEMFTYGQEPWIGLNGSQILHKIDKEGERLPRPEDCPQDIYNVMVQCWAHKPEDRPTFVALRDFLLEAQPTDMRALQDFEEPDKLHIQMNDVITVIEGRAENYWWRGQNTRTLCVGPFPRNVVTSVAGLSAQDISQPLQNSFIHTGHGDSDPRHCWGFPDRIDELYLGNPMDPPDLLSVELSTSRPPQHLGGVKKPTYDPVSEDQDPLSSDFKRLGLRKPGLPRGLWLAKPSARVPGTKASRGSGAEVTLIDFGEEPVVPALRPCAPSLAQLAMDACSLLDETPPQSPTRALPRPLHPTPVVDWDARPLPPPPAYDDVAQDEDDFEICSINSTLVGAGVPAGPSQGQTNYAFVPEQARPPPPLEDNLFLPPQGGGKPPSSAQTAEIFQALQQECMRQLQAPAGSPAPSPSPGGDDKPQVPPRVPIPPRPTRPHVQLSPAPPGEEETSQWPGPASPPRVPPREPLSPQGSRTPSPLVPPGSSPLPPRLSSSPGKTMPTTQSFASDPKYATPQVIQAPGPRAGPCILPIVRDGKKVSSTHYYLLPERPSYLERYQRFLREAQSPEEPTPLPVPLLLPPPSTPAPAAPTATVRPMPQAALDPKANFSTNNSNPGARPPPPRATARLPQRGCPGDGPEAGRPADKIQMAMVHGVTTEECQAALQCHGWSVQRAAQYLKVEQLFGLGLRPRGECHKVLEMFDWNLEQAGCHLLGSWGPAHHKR

Legend:
Experiment in all cases: apparent dissociation constant pKd app (kinobead competition) (-log10(M)); higher = stronger binding
MAPK6 = MAPK6 (UniProt Q16659)
STRADA = target: T1, STRADA (UniProt Q7RTN6)
T1 sequence (whole entry): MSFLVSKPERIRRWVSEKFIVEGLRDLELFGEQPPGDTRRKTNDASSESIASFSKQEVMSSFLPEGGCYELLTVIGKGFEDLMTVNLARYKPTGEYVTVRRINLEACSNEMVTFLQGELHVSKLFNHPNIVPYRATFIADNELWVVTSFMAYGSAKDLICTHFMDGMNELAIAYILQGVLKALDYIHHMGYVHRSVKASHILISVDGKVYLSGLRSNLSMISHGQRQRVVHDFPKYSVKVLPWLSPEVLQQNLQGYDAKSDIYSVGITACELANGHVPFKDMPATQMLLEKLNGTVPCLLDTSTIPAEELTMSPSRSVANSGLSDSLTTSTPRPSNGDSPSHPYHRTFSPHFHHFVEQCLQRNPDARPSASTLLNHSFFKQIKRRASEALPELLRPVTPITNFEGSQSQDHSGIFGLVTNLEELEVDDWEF

TGFBR2 = TGFBR2 (UniProt P37173)
PIP4K2C = target: T2, PIP4K2C (UniProt Q8TBX8)
T2 sequence (whole entry): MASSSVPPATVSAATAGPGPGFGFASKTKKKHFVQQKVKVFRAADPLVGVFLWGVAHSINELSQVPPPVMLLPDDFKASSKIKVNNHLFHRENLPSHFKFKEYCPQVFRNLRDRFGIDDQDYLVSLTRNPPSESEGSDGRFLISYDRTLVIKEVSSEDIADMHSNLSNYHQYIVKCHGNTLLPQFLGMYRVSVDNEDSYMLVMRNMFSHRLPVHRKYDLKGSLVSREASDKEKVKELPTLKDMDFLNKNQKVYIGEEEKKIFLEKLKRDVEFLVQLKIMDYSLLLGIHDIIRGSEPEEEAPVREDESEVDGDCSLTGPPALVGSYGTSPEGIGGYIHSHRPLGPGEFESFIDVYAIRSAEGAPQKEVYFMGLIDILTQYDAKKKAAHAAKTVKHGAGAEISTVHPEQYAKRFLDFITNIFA

IKBKE = target: T3, IKBKE (UniProt Q14164)
T3 sequence (whole entry): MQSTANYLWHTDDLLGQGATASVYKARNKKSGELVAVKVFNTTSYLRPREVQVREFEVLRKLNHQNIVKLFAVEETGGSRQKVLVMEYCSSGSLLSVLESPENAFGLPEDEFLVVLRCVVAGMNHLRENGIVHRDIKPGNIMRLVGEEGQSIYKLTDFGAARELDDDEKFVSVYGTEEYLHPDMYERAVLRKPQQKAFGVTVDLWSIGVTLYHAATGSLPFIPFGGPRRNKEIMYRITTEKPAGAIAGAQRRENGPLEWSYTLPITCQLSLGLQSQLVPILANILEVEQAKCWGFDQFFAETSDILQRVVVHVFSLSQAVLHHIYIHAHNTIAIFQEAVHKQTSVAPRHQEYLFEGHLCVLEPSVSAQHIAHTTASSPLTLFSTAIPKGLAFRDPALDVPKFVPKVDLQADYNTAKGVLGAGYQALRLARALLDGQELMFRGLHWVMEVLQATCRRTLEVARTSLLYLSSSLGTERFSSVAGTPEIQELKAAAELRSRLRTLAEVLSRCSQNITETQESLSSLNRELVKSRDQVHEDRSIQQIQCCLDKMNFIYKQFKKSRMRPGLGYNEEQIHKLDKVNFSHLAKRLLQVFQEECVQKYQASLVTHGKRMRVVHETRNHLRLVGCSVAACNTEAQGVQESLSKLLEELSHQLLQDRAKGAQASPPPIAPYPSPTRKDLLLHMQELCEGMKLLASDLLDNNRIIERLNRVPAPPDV

NEK2 = target: T4, NEK2 (UniProt P51955)
T4 sequence (whole entry): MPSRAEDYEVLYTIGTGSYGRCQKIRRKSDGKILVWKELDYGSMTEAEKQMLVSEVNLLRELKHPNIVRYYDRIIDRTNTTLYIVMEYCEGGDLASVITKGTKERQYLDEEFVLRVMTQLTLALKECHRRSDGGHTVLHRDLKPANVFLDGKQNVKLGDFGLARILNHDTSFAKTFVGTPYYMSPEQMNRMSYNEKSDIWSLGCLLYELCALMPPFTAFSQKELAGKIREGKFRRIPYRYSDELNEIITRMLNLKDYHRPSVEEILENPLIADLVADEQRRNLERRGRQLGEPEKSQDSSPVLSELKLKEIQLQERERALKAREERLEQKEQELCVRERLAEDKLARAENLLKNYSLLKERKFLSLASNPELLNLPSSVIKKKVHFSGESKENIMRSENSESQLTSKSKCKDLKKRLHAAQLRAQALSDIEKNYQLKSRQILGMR

CAMK2B = CAMK2B (UniProt Q13554)
ZAK = ZAK (UniProt Q9NYL2)
PRKCD = PRKCD (UniProt Q05655)
CAMK2G = CAMK2G (UniProt Q13555)
MYLK = MYLK (UniProt Q15746)
PTK2 = PTK2 (UniProt Q05397)
TNK2 = TNK2 (UniProt Q07912)

apparent dissociation constant pKd app (-log10) (MAPK6) | apparent dissociation constant pKd app (-log10) (STRADA) | apparent dissociation constant pKd app (-log10) (TGFBR2) | apparent dissociation constant pKd app (-log10) (PIP4K2C) | apparent dissociation constant pKd app (-log10) (IKBKE) | apparent dissociation constant pKd app (-log10) (NEK2) | apparent dissociation constant pKd app (-log10) (CAMK2B) | apparent dissociation constant pKd app (-log10) (ZAK) | apparent dissociation constant pKd app (-log10) (PRKCD) | apparent dissociation constant pKd app (-log10) (CAMK2G) | apparent dissociation constant pKd app (-log10) (MYLK) | apparent dissociation constant pKd app (-log10) (PTK2) | apparent dissociation constant pKd app (-log10) (TNK2) | SMILES
< 4.5 | < 4.5 | < 4.8 | < 4.6 | < 4.6 | < 4.7 | < 4.9 | < 4.6 | < 4.5 | < 4.9 | < 4.5 | < 4.8 | < 4.7 | O=C(c1cc(Cc2n[nH]c(=O)c3ccccc23)ccc1F)N1CCN(C(=O)C2CC2)CC1 [Olaparib]
< 4.5 | < 4.5 | < 4.8 | < 4.6 | < 4.6 | < 4.7 | < 4.9 | < 4.6 | < 4.5 | < 4.9 | < 4.5 | < 4.8 | < 4.7 | NC(=O)c1cccc2cn(-c3ccc([C@@H]4CCCNC4)cc3)nc12 [Niraparib]
< 4.5 | < 4.5 | < 4.8 | < 4.6 | < 4.6 | < 4.7 | < 4.9 | < 4.6 | < 4.5 | < 4.9 | < 4.5 | < 4.8 | < 4.7 | Cn1ncnc1[C@H]1c2n[nH]c(=O)c3cc(F)cc(c23)N[C@@H]1c1ccc(F)cc1 [Talazoparib]
